Assay results as given in PubChem BioAssay (NCATS).
“And” between values parts separate entries of the source, which are not always exact repeats. Identical values can stand only once. Only a part is listed here, and it is no random draw. Records with an inconclusive call do not appear. The source made the active and inactive calls. Unless noted, calls come from the whole dose curve; as a rule, active = well fitted cell-killing curve with a large enough effect; inconclusive = small, poorly fitted or top-dose-only effect; inactive = flat fitted curve, though single readings scatter.

Columns and labels:
[1] = Cell Viability - LYMP2-024 (AID 988); conditions: LYMP2-024 lymphoblastoid cell viability; at 92.2 µM (top of the series);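 note: plate controls were DMSO only for no effect and 92 µM tetraoctylammonium bromide for full effect; nearly all actives have a fitted effect of over 60% in size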
Method in brief: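 Human lymphoblastoid cells (2500/well) in complete medium were preincubated 5 hr at 37 C, then exposed to compounds for 24 hr at 37 C. Intracellular ATP was read by CellTiter-Glo luminescence; AC50 from Hill-equation fits of concentration-response data.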

[2] = Cell Viability - LYMP2-026 (AID 989); conditions: LYMP2-026 lymphoblastoid cell viability, qHTS; at 92.2 µM (top of the series); note: % is set by controls: 0 for no effect and ±100 for the full control effect; nearly all actives have a fitted effect of over 50% in size
Text: NIH Chemical Genomics Center [NCGC]
NIH Molecular Libraries Screening Centers Network [MLSCN]
National Institutes of Environmental Health Sciences [NIEHS]
National Toxicology Program [NTP]
We have developed a 1536-well cell-based assay for quantitative high throughput screening (qHTS) against a number of cell lines to determine in vitro cytotoxicity of small molecules. This particular assay uses a human lymphoblastoid cell line (LYMP2-026) purchased from Coriell Institute for Medical Research.
NCGC Assay Protocol Summary:
The CellTiter-Glo luminescent cell viability assay (Promega) is a homogeneous method to measure the number of viable cells in culture. The end point readout of this assay is based on quantitation of intracellular ATP, an indicator of metabolic activity, using the luciferase reaction. […]
Using the CellTiter-Glo luminescent cell viability assay, the amount of cellular ATP was measured in the lymphoblastoid cell line with complete culture medium following compound treatment for 24 hours. […] Library compounds were measured for their ability to cause acute toxicity in the cell line, as reflected by a decrease in intracellular ATP levels, in a concentration-dependent manner. […] AC50 values were determined from concentration-response data modeled with the standard Hill equation. […]
8. Detection; Luminescence; Viewlux plate reader […]

[3] = Cell Viability - LYMP1-002 - Assay at 24 hr (AID 993); conditions: LYMP1-002 lymphoblastoid cells viability; at 92.2 µM (top of the series); note: % is set by controls: 0 for no effect and ±100 for the full control effect
Method in brief: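 Human lymphoblastoid LYMP1-002 cells, 2500/well in complete medium, were treated with compounds for 24 h at 37 C; intracellular ATP was read by CellTiter-Glo luminescence. AC50 values came from Hill-equation fits of qHTS concentration-response data.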

[4] = Cell Viability - LYMP1-002 - Assay at 40 hr (AID 994); conditions: LYMP1-002 lymphoblastoid cell viability; at 92.2 µM (top of the series);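 note: 0% = DMSO only and full inhibition = 92 µM tetraoctylammonium bromide; nearly all actives have a fitted effect of over 60% in size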
Method in brief: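 Human lymphoblastoid cells, 2500/well in complete medium, were preincubated 5 hr at 37 C, then exposed to compounds for 40 hr at 37 C. Intracellular ATP was read by CellTiter-Glo luminescence after 30 min at room temperature; AC50 from Hill-equation fits.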

[5] = qHTS Assay for Identification of Small Molecule Inducers of Hypoxia Response (AID 2120; active = well fitted curve in the direction sought with a large enough effect in the signal ratio, with a control signal flat, not every such curve was filed as active; the % refers to the signal ratio; note: 0% is about no effect); conditions: hypoxia response reporter cells, beta-lactamase ratio readout; at 104 µM (top of the series)
Method in brief: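 HRE-beta-lactamase reporter in CellSensor HRE-bla ME-180 cells, 2500 cells/well in Opti-MEM with 0.5% dialyzed FBS; compounds tested as titration series, 17 h at 37 degrees C. CCF4 substrate 2.5 h at room temperature; AC50 from 460/530 nm ratio.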

[6] = molecular target: Bile acid receptor (Homo sapiens) (UniProt Q96RI1); experiment: qHTS assay for small molecule antagonists of farnesoid X receptor signaling (AID 588526; calls by dose curve; note: % is set by controls: 0 for no effect and ±100 for the full control effect); conditions: HEK293T FXR-UAS-bla, beta-lactamase ratio, antagonist mode; at 76.7 µM (top of the series)
[7] = molecular target: Bile acid receptor (Homo sapiens) (UniProt Q96RI1); experiment: qHTS assay for small molecule agonists of farnesoid X receptor signaling (AID 588527; calls by dose curve;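 note: 0% = vehicle basal and 100% = reference agonist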); conditions: HEK293T FXR-UAS-bla, beta-lactamase ratio, 16 h; hits give high values
[8] = molecular target: Estrogen receptor (Homo sapiens) (UniProt P03372); experiment: qHTS assay for small molecule antagonists of estrogen receptor alpha signaling (AID 588513; active = well fitted curve in the direction sought with a large enough effect in the signal ratio, with a control signal flat, not every such curve was filed as active; the % refers to the signal ratio; note: % is set by controls: 0 for no effect and ±100 for the full control effect); conditions: ER-alpha-UAS-bla HEK293, beta-lactamase ratio, antagonist mode; at 76.9 µM (top of the series)
[9] = molecular target: Estrogen receptor (Homo sapiens) (UniProt P03372); experiment: qHTS assay for small molecule agonists of estrogen receptor alpha signaling (AID 588514; calls by dose curve;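 note: 0% = vehicle only and 100% = reference agonist; nearly all actives have a fitted effect of over 70% in size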); conditions: ER-alpha-UAS-bla HEK293, beta-lactamase ratio, 18 h, percent of full estradiol response, vehicle zero; at 76.8 µM (top of the series)
[10] = molecular target: Glucocorticoid receptor (Homo sapiens) (UniProt P04150); experiment: qHTS assay for small molecule agonists of glucocorticoid receptor signaling (AID 588532; active = well fitted curve in the direction sought with a large enough effect in the signal ratio, with a control signal flat; the % refers to the signal ratio;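 note: 100% = dexamethasone at 0.1 µM and 0% = DMSO only wells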); conditions: HeLa MMTV-bla, beta-lactamase ratio, agonist, 18 h; hits give high values

CCOP(=O)(Cl)Cl
inactive: activity change, negative = cytotoxicity [1] -6.09% | activity change, negative = cytotoxic [2] -7.39% | activity change, negative = cytotoxicity [3] 0.692% | viability change, negative = cytotoxic [4] -1.39% | activation [5] 1.11% | activity change, negative = inhibition [6] 2.61% and -3.63% | activation [7] 0.86% and -2.54%

ClCCOP(OCCCl)OCCCl
inactive: activity change, negative = cytotoxicity [1] -8.84% | activity change, negative = cytotoxic [2] 0.744% | activity change, negative = cytotoxicity [3] 1.61% | viability change, negative = cytotoxic [4] -0.262% | activation [5] 0.609% | activity, negative = inhibition [8] 21.1% | activation [9] -3.8% | activation [10] -3.43%
